# Literature values, collected in patent US20010046684A1, “Methods of structure-based drug design using MS/MNR” (priority 2000, published 2001).
# Molecular target: T1, MMP-1 (Homo sapiens, UniProt P03956)
# T1 sequence (P03956 100-469): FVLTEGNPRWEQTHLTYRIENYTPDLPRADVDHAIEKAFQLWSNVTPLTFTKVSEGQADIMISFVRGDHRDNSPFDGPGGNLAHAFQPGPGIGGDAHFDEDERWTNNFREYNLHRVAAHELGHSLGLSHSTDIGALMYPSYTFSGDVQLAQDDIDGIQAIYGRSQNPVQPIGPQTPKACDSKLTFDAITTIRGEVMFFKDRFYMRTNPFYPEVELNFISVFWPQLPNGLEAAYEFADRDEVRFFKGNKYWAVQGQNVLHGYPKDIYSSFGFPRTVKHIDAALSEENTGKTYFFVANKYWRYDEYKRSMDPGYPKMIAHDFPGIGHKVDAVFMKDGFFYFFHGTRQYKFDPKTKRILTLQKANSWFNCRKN
# Conditions: Inhibitors of MMP-1; compounds having known affinities, previously tested; cited from earlier work
compound,measurement,value
"COc1ccc(S(=O)(=O)N(Cc2cccnc2)[C@@H](C(=O)NO)C(C)C)cc1 [Compound 1, N2-(4-Methoxy-benzenesulfonyl)-N2-[(pyridin-3-yl)methyl]-N-hydroxy-D-valinamide]",IC50,9 nM
